The target of assay [1] is Mu-type opioid receptor (Homo sapiens, UniProt P35372). Kind of assay: Partial agonist activity at human MOP receptor expressed in CHO cells assessed as stimulation of [35S]GTPgammaS binding after 60 mins by scintillation counting.
For assay [2], the target named is Delta-type opioid receptor (Homo sapiens, UniProt P41143). Nature of the assay: Partial agonist activity at human DOP receptor expressed in CHO cells assessed as stimulation of [35S]GTPgammaS binding after 60 mins by scintillation counting. A general note: GTPγS resists hydrolysis and so accumulates on activated G proteins.
Assay [3] deals with T1, Kappa-type opioid receptor (Homo sapiens, UniProt P41145). Nature of the assay: Partial agonist activity at human KOP receptor expressed in CHO cells assessed as stimulation of [35S]GTPgammaS binding after 60 mins by scintillation counting.
In assay [4] the target is Nociceptin receptor (Homo sapiens, UniProt P41146). Nature of the assay: Partial agonist activity at human NOP receptor expressed in CHO cells assessed as stimulation of [35S]GTPgammaS binding after 60 mins by scintillation counting.
In assay [5] the target is T1, Kappa-type opioid receptor. Kind of assay: Displacement of [3H]U69593 from human KOP receptor expressed in CHO cells after 60 mins by scintillation counting.
The test system of assay [6] is Mus musculus. Nature of the assay: Antinociceptive activity in sc dosed CD1 mouse assessed as inhibition of PPQ-induced writhing by tail flick assay. As to conditions: strain CD1, Tail.
For assay [7], the system named is Mus musculus. Nature of the assay: Antinociceptive activity in sc dosed CD1 mouse by tail flick assay. The settings on record: strain CD1, Tail.
Assay [8] relates to Mus musculus. Nature of the assay: Antinociceptive activity in CD1 mouse at 30 mg/kg, sc by tail flick assay. As to conditions: route subcutaneous, strain CD1, Tail.

Chains of the proteins cited; added tags and fusions are not shown.
UniProt P35372, whole entry: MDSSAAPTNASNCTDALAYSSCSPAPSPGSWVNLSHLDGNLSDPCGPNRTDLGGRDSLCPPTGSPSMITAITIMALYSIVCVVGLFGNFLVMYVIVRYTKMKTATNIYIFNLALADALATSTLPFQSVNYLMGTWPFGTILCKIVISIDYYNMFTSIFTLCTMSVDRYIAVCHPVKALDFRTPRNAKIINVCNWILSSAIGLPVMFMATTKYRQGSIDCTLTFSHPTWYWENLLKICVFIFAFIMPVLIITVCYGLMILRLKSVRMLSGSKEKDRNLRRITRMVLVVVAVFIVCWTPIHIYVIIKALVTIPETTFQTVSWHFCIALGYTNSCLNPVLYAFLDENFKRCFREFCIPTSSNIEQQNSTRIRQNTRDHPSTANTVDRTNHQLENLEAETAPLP
UniProt P41143, whole entry: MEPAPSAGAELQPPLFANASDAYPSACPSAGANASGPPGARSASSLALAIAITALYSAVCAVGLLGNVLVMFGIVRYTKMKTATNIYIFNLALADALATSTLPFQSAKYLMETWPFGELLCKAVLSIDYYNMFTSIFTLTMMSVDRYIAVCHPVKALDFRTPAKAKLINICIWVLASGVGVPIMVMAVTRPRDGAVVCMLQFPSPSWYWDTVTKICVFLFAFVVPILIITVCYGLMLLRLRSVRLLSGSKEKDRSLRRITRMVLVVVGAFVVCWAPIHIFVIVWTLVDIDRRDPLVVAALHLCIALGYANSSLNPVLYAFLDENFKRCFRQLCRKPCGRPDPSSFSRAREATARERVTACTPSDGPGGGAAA
UniProt P41145, whole entry: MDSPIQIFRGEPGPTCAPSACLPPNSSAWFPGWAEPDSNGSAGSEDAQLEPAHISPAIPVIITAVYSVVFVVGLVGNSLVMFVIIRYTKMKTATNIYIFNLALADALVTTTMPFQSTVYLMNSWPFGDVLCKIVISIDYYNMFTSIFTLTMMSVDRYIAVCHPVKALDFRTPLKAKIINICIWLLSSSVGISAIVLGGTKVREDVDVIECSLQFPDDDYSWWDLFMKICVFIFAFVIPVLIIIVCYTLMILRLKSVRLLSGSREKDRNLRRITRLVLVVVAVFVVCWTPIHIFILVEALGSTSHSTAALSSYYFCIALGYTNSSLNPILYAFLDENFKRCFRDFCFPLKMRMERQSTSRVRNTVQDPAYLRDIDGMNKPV
UniProt P41146, whole entry: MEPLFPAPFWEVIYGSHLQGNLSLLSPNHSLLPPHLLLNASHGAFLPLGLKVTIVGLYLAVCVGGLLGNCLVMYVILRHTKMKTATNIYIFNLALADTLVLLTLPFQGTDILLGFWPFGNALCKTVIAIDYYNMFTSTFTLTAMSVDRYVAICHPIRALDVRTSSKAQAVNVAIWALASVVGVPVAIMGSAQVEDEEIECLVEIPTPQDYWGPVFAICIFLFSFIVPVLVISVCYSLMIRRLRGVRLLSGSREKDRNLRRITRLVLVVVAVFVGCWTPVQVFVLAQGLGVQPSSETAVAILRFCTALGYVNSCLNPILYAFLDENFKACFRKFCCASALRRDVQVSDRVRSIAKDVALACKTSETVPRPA

One may read the EC50 as the concentration that produces a half-maximal response. Turning to `CO[C@]12CC[C@@]3(C[C@@H]1[C@](C)(O)CC(C)(C)C)[C@H]1Cc4ccc(O)c5c4[C@@]3(CCN1CC1CC1)[C@H]2O5`, the EC50 came out at 2.6 nM in assay [1] and 50.1 nM in assay [2].
For the compound `CO[C@]12CC[C@@]3(C[C@@H]1[C@](C)(O)CC1CC4CCC1C4)[C@H]1Cc4ccc(O)c5c4[C@@]3(CCN1CC1CC1)[C@H]2O5` (stereo not given in full), the EC50 in assay [1] turned out to be 6.1 nM; in assay [2], 49.3 nM; in assay [3], 5.33 nM; in assay [4], 111 nM.
A word on the Ki: it is the equilibrium dissociation constant of an inhibitor or competing ligand from its target. `CCC(C)(C)[C@](C)(O)[C@H]1C[C@@]23CC[C@]1(OC)[C@@H]1Oc4c(O)ccc5c4[C@@]12CCN(CC1CC1)[C@@H]3C5`: the values for the EC50 in assay [1] and in assay [4] were 6 nM and 78.6 nM, respectively. In addition, the affinity in assay [5], expressed as Ki, was 5.63 nM.
For the compound `CO[C@]12CC[C@@]3(C[C@@H]1[C@](C)(O)CC(C)(C)c1ccccc1)[C@H]1Cc4ccc(O)c5c4[C@@]3(CCN1CC1CC1)[C@H]2O5`, the EC50 in assay [2] is 3410 nM; in assay [3] it was 0.88 nM; in assay [4], 2380 nM.
One may read the ED50 as the midpoint of the dose-response relation. Take `CO[C@]12CC[C@@]3(C[C@@H]1[C@@](C)(O)C(C)(C)C)[C@H]1Cc4c(Cl)cc(O)c5c4[C@@]3(CCN1CC1CC1)[C@H]2O5`: the ED50 in assay [6] is 0.016 mg/kg. Further, in assay [7], the A50 was 4.7 mg/kg. The Activity in assay [8] was 15%.

Source of the values: ChEMBL document CHEMBL1833948, “Structural determinants of opioid and NOP receptor activity in derivatives of buprenorphine” (2011).
